ChEMBL document CHEMBL1135770, “Synthesis and transporter binding properties of 3beta-[4'-(phenylalkyl, -phenylalkenyl, and -phenylalkynyl)phenyl]tropane-2beta-carboxylic acid methyl esters: evidence of a remote phenyl binding domain on the dopamine transporter” (J Med Chem, 2002)

Amino acid sequences for entries named in this document (tags omitted).
UniProt P31652, whole entry: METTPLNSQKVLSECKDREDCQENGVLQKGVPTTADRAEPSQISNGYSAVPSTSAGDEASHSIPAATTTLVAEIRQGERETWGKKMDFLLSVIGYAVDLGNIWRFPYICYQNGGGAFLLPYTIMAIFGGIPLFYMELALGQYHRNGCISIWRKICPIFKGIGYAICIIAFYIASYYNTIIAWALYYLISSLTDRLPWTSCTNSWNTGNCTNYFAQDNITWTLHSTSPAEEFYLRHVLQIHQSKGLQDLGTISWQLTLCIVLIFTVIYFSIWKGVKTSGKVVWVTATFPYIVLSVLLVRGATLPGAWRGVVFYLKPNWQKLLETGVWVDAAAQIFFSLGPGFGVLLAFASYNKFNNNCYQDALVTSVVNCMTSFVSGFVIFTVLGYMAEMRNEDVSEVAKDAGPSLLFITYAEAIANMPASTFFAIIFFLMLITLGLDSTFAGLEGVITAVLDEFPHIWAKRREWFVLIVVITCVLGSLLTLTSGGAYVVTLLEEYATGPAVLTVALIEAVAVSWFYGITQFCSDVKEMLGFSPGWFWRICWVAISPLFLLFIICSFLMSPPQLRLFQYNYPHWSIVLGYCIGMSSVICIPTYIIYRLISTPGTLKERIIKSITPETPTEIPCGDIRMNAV

Target: Sodium-dependent serotonin transporter (Rattus norvegicus, UniProt P31652)
Assay: Tested for the binding affinity towards Serotonin transporter in rat midbrain tissue by displacing [3H]paroxetine radioligand
Format: tissue-based
Procedure, shortened: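 Competition binding with 0.2 nM [³H]paroxetine as final radioligand concentration.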

Compound: COC(=O)[C@@H]1C2CC[C@H](C[C@@H]1c1ccccc1)N2C
- Ki: 178 nM
